Reference: ChEMBL document CHEMBL2406958, “Development of a chimeric c-Src kinase and HDAC inhibitor” (ACS Med Chem Lett, 2013)

Experiments:
Format in all cases: functional
MDA-MB-231 = experiment: Cytotoxicity against human MDA-MB-231 cells after 48 hrs by SRB assay
U-251 = experiment: Cytotoxicity against human U251 cells after 48 hrs by SRB assay
[1] = Cytotoxicity against human NCI60 cells after 48 hrs by SRB assay

SMILES: O=C(CCCCCCC(=O)Nc1ccccc1)NO [VORINOSTAT]
- GI50 (MDA-MB-231): 2320 nM
- GI50 (U-251): 1530 nM
- GI50 [1]: 530 nM
